{"source": "patent US20240299353A1", "about": "“COMPOSITIONS AND METHODS FOR TREATING […] 5-MEO-DMT” (Alvarius Pharmaceuticals Ltd., priority 2021, published 2024)", "format_in_all_cases": "in vivo, Male Wistar rats", "key": {"pCREB": {"tested_on": "pCREB", "experiment": "Western blot of pCREB in brain regions, chronic cocaine ± 5-MeO-DMT", "conditions": "for pCREB levels: cocaine", "procedure": "(§1) Male Wistar rats aged 7 weeks were acclimatized to the facility for 1 week prior to the beginning of the study. Animals were administered cocaine hydrochloride (15 mg/kg, Sigma) or saline by i.p. injection once daily for 7 days. For the subsequent 7 days animals receiving cocaine were administered a higher dose 20 mg/kg i.p. to encapsulate the increased drug use seen following prolonged drug use in human addicts (Piazza, P. V. & V. Deroche-Gamonet (2013) A multistep general theory of transition to addiction. Psychopharmacology, 229, 387-413). One-hour post last cocaine animals received a vehicle, low (10 mg/kg) or high (20 mg/kg) dose of 5-MeO-DMT (CarboSynth). Animals were euthanized 23- or 119-hours following vehicle or 5-MeO-DMT administration.\n(§2) Following euthanasia brain regions of interest were isolated. Briefly, the olfactory bulbs were removed before the brain was placed in a rat brain matrix (FIG. 2A). Sterile blades were inserted at positions 2 and 3 (FIG. 2B) to extract a coronal slice containing the Bregma+˜0.2-+˜2.2 coordinates (FIG. 2C). From this tissue slice a blunted 12 G needle was used to punch dissect the NAc and dorsal striatum (DS) (FIG. 2D-2E) identified using the rat brain atlas (Panxinos and Watson 2nd edition). The PFC, hippocampus (Hip) and amygdala (Amyg) were then blunt dissected (FIG. 3A-3D). All regions were frozen in liquid nitrogen and stored at −80° C. until processed.\n(§3) There were 12 treatment groups arising from this study each comprised of 6 animals, they were as follows; saline+vehicle, saline+10 mg/kg 5-MeO-DMT, saline+20 mg/kg 5-MeO-DMT, cocaine+vehicle, cocaine+10 mg/kg 5-MeO-DMT and cocaine+20 mg/kg 5-MeO-DMT for 24- and 120-hours post cocaine/saline. These treatment groups were used for the molecular assessment of addiction-linked markers. Hippocampal protein from the treatment groups saline+vehicle, saline+10 mg/kg 5-MeO-DMT, saline+20 mg/kg 5-MeO-DMT, cocaine+vehicle, cocaine+10 mg/kg 5-MeO-DMT and cocaine+20 mg/kg 5-MeO-DMT collected 24 hours after the last cocaine/saline exposure were further analyzed by mass spectrometry.\nDetermination of protein concentration—a bicinchoninic acid assay (BCA, ThermoFisher) was conducted to determine the total protein concentration in tissue lysates following manufacturer's instructions. […] For tissue lysates a 1:10 dilution was performed with cell lysis buffer to ensure absorbance values lay within the working range established by the standards. […] The plate was covered and incubated for 30 mins at 37° C. before absorbance was read at 562 nm on a plate reader (SpectraMax M3). The absorbance values were used to form a standard curve of known protein concentrations and protein concentration of samples were derived using the equation of the line. […]"}, "ΔFosB": {"tested_on": "ΔFosB", "experiment": "Western blot of ΔFosB in brain regions, chronic cocaine ± 5-MeO-DMT", "procedure": "as §1, §2, §3\n(§4) Determination of protein concentration—a bicinchoninic acid assay (BCA, ThermoFisher) was conducted to determine the total protein concentration in tissue lysates following manufacturer's instructions. Briefly, bovine serum albumin (BSA) standards were prepared in a serial dilution (0-2.0 mg protein/ml) and 200 μl working reagent (50:1, reagent A: reagent B) was added to each of the standards and samples in a 96 well plate (Greiner). For tissue lysates a 1:10 dilution was performed with cell lysis buffer to ensure absorbance values lay within the working range established by the standards. All samples and standards were added in duplicate. The plate was covered and incubated for 30 mins at 37° C. before absorbance was read at 562 nm on a plate reader (SpectraMax M3). The absorbance values were used to form a standard curve of known protein concentrations and protein concentration of samples were derived using the equation of the line. All samples were standardized to the lowest protein concentration using distilled H20 (dH2O).\n(§5) SDS-PAGE and Western Blotting—Following equalisation of protein concentrations, 6× sample loading buffer (15% SDS, 15% […], 50% glycerol, 0.01% bromophenol blue, […]) was added to each sample using a dilution factor of 1:5 of the total volumes before boiling at 100° C. for 5 mins. Samples were stored at −20° C. until use. One dimensional sodium-dodecyl-sulphate polyacrylamide gel electrophoresis (SDS-PAGE) was used for protein separation based on molecular weight. The percentage of acrylamide in the resolving or stacking gel was determined by the molecular weight of the protein of interest. In this instance all gels consisted of a 5% stacking gel and a 10% resolving gel with the exception of mGluR5, G9a (8%) and H3K9Me2 (12%). 20 μg of protein was loaded and resolved using SDS-PAGE. […]"}, "mGluR5": {"tested_on": "mGluR5", "experiment": "Western blot of mGluR5 in brain regions, chronic cocaine ± 5-MeO-DMT", "conditions": "nucleus accumbens, 24 h, two-way ANOVA p=0.0450, does not survive post hoc", "procedure": "as §1\n(§6) Following euthanasia brain regions of interest were isolated. […]\n(§7) There were 12 treatment groups arising from this study each comprised of 6 animals, they were as follows; saline+vehicle, saline+10 mg/kg 5-MeO-DMT, saline+20 mg/kg 5-MeO-DMT, cocaine+vehicle, cocaine+10 mg/kg 5-MeO-DMT and cocaine+20 mg/kg 5-MeO-DMT for 24- and 120-hours post cocaine/saline. […] Hippocampal protein from the treatment groups saline+vehicle, saline+10 mg/kg 5-MeO-DMT, saline+20 mg/kg 5-MeO-DMT, cocaine+vehicle, cocaine+10 mg/kg 5-MeO-DMT and cocaine+20 mg/kg 5-MeO-DMT collected 24 hours after the last cocaine/saline exposure were further analyzed by mass spectrometry. […]"}, "G9a": {"tested_on": "G9a", "experiment": "Western blot of G9a in brain regions, chronic cocaine ± 5-MeO-DMT", "procedure": "as §1, §2, §3, §4, §5"}, "FosB": {"tested_on": "FosB", "experiment": "Western blot of FosB in brain regions, chronic cocaine ± 5-MeO-DMT", "procedure": "as §1, §2, §3\nas §4, with “All samples were standardized to the lowest protein concentration using distilled H20 (dH2O).” left out\nSDS-PAGE and Western Blotting—Following equalisation of protein concentrations, 6× sample loading buffer (15% SDS, 15% […], 50% glycerol, 0.01% bromophenol blue, […]) was added to each sample using a dilution factor of 1:5 of the total volumes before boiling at 100° C. for 5 mins. […] The percentage of acrylamide in the resolving or stacking gel was determined by the molecular weight of the protein of interest. […]"}, "BDNF": {"tested_on": "BDNF", "experiment": "Western blot of BDNF in brain regions, chronic cocaine ± 5-MeO-DMT", "conditions": "hippocampus", "procedure": "as §1, §6, §7"}, "[1]": {"conditions": "nucleus accumbens, 24 h, cocaine+vehicle (14 daily i.p. injections)"}, "[2]": {"conditions": "nucleus accumbens, 120 h, cocaine+vehicle"}}}
{"smiles": "COC(=O)[C@H]1[C@@H](OC(=O)c2ccccc2)C[C@@H]2CC[C@H]1N2C.Cl", "note": "[cocaine, cocaine hydrochloride, reference compound]", "values": [{"measurement": "pCREB levels", "setting": "pCREB; PFC, 24 h, p=0.0048", "value": "significant effect"}, {"measurement": "proportion of pCREB relative to total CREB", "setting": "pCREB; PFC, 24 h and 120 h, all treatments", "value": "no change"}, {"measurement": "pCREB levels", "setting": "pCREB; PFC, 120 h, p=0.0259", "value": "significant effect"}, {"measurement": "proportion of pCREB", "setting": "pCREB; amygdala, 24 h and 120 h, any of the treatments", "value": "unchanged by any of the treatments"}, {"measurement": "ΔFosB expression", "setting": "ΔFosB; PFC, 24 h, cocaine alone or 5-MeO-DMT alone", "value": "Neither treatment changes expression alone"}, {"measurement": "ΔFosB expression", "setting": "ΔFosB; PFC, 120 h, cocaine, two-way ANOVA p=0.0144, no post hoc differences", "value": "significant cocaine effect"}, {"measurement": "ΔFosB expression", "setting": "ΔFosB; amygdala, 24 h, cocaine+vehicle", "value": "increase in expression"}, {"measurement": "ΔFosB expression", "setting": "ΔFosB; amygdala, 120 h, cocaine", "value": "no cocaine-induced increase"}, {"measurement": "ΔFosB expression", "setting": "ΔFosB; dorsal striatum, 24 h, cocaine+vehicle relative to control", "value": "significant increase in ΔFosB expression"}, {"measurement": "ΔFosB expression", "setting": "ΔFosB; [1]", "value": "increases the expression"}, {"measurement": "ΔFosB expression", "setting": "ΔFosB; [2]", "value": "basal expression levels were re-established"}, {"measurement": "mGluR5 expression", "setting": "mGluR5", "value": "significant cocaine effect"}, {"measurement": "G9a expression", "setting": "G9a; PFC, 24 h, cocaine+vehicle relative to saline+vehicle", "value": "significant decrease in G9a expression"}, {"measurement": "G9a expression", "setting": "G9a; PFC, 120 h, cocaine, two-way ANOVA p=0.0187, no post hoc differences", "value": "significantly affects expression levels"}, {"measurement": "G9a expression", "setting": "G9a; dorsal striatum, 24 h, cocaine", "value": "increased the expression"}, {"measurement": "G9a expression", "setting": "G9a; dorsal striatum, 120 h, cocaine", "value": "no change present"}, {"measurement": "G9a expression", "setting": "G9a; hippocampus, 24 h, cocaine", "value": "reduced"}, {"measurement": "G9a expression", "setting": "G9a; hippocampus, 120 h, cocaine", "value": "no change present"}, {"measurement": "FosB expression", "setting": "FosB; PFC, 24 h and 120 h, any of the treatments", "value": "unchanged by any of the treatments"}, {"measurement": "FosB expression", "setting": "FosB; amygdala, 24 h, any treatment", "value": "no change in FosB levels"}, {"measurement": "FosB expression", "setting": "FosB; dorsal striatum, 24 h, repeated cocaine, two-way ANOVA, no post hoc differences", "value": "significant effect"}, {"measurement": "FosB expression", "setting": "FosB; [1]", "value": "increases the expression"}, {"measurement": "FosB expression", "setting": "FosB; [2]", "value": "basal expression levels were re-established"}, {"measurement": "BDNF expression", "setting": "BDNF; 24 h, any of the treatment groups", "value": "no change in BDNF expression"}, {"measurement": "BDNF levels", "setting": "BDNF; 120 h, cocaine+vehicle", "value": "significant decrease in BDNF levels"}]}
